Source: patent US20230265105A1, “MACROCYCLIC 7-PYRAZOL-5-YL-INDOLE DERIVATIVES AS INHIBITORS OF MCL-1” (Janssen Pharmaceutica NV, priority 2020, published 2023)

Chains of the proteins cited; added tags and fusions are not shown.
UniProt Q07820, whole entry: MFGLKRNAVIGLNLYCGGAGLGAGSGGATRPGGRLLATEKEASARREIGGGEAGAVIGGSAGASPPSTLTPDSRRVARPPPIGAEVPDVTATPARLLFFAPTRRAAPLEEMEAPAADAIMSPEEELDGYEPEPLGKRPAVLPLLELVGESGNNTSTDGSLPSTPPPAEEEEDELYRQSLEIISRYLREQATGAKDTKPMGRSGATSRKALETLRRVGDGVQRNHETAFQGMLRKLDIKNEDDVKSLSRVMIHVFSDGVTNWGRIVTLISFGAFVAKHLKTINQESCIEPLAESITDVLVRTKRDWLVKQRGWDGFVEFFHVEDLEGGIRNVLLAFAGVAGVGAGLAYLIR

Legend:
[1] = target: Myeloid Cell Leukemia 1 (Mcl-1) (Homo sapiens, UniProt Q07820); assay: Terbium labeled Mcl-1 HTRF binding assay with Cy5-labeled BIM BH3 peptide; details: read-out: Tb-MCL1 Ki, Ki=IC50/(1+[L]/Kd), [L]=8 nM, Kd=10 nM, 60 min incubation at room temperature
Text: Terbium labeled Myeloid Cell Leukemia 1 (Mcl-1) homogeneous time-resolved fluorescence (HTRF) binding assay utilizing the BIM BH3 peptide (H2N-(C/Cy5Mal) WIAQELRRIGDEFN-OH) as the binding partner for Mcl-1.
This assay evaluated inhibition of the BH3 domain: Mcl-1 interaction by measuring the displacement of Cy5-labeled BIM BH3 peptide (H2N—(C/Cy5Mal) WIAQELRRIGDEFN-OH) in the HTRF assay format. […]
The TR-FRET signal was read on an BMG PHERAStar FSX MicroPlate Reader at room temperature using the HTRF optic module (HTRF: excitation: 337 nm, light source: laser, emission A: 665 nm, emission B: 620 nm, integration start: 60 μs, integration time: 400 μs).
The BMG PHERAStar FSX MicroPlate Reader was used to measure fluorescence intensity at two emission wavelengths—665 nm and 620 nm—and report relative fluorescence units (RFU) for both emissions, as well as a ratio of the emissions (665 nm/620 nm)*10,000. […]
Representative compounds of the present invention were tested according to the procedure as described above, with results as listed in the Table below (n.d. means not determined).

[2] = tested on: MOLP-8 human multiple myeloma cell line; assay: MOLP8 Caspase-Glo 3/7 apoptosis induction assay; details: read-out: MOLP8 Caspase-Glo AC50; MOLP-8 cells, 2 hours at 37° C.; 30 μM highest conc.; averaged over all runs on all batches
Text: MCL-1 is a regulator of apoptosis and is highly over-expressed in tumor cells that escape cell death. The assay evaluates the cellular potency of small-molecule compounds targeting regulators of the apoptosis pathway, primarily MCL-1, Bfl-1, Bcl-2, and other proteins of the Bcl-2 family. Protein-protein inhibitors disrupting the interaction of anti-apoptotic regulators with BH3-domain proteins initiate apoptosis.
The Caspase-Glo® 3/7 Assay is a luminescent assay that measures caspase-3 and -7 activities in purified enzyme preparations or cultures of adherent or suspension cells. The assay provides a proluminescent caspase-3/7 substrate, which contains the tetrapeptide sequence DEVD. This substrate is cleaved to release aminoluciferin, a substrate of luciferase used in the production of light. […]
Cell cultures were maintained between 0.2 and 2.0×10^6 cells/mL. […] The cells were counted and diluted as needed. […]
Compounds were delivered in assay-ready plates (Proxiplate) and stored at −20° C.
Assays always include 1 reference compound plate containing reference compounds. […] The plates were then sealed and measured after 30 minutes.
The activity of a test compound was calculated as percent change in apoptosis induction as follows: […]

SMILES: Cn1nc2cc1CSc1cc(c3ccccc3c1)OCCCc1c(C(=O)O)n(C)c3c(c(Cl)ccc13)-c1c(cnn1C)CSC2 (single isomer, unassigned) [Compound 6]
- Ki [1]: 0.00954 µM
- AC50 [2]: 10.2 µM
